This note sets out measurements from ChEMBL document CHEMBL1123007, “New antiarrhythmic agents. N-aryl-8-pyrrolizidinealkanamides” (J Med Chem, 1985).

The experiment can be described thus: Ratio of LD50 to ED50 evaluated for its antiarrhythmic potency. Format: functional, Heart.

As to `CCN(CC)CC(=O)Nc1c(C)cccc1C` [LIDOCAINE], the Ratio is 8.21.
